Among the data in PubChem BioAssay AID2112 (National Center for Advancing Translational Sciences (NCATS), 2009) are activity change, negative = inhibition values, retold here.

Only a part is listed here, and it is no random draw. The source made the active and inactive calls. Calls come from the whole dose curve; as a rule, active = well fitted inhibition curve with a large enough effect; inconclusive = small, poorly fitted or top-dose-only effect, or effect the other way, or another doubt; inactive = no such curve, though single readings can be large or run the other way.

In this test the target is Lysosomal alpha-glucosidase (Homo sapiens) (UniProt P10253). Description: qHTS Assay for Inhibitors and Activators of Human alpha-Glucosidase From Spleen Homogenate.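 Note: 0% = enzyme with vehicle and -100% = no enzyme basal signal.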 The settings on record: 4-MU-alpha-glucoside fluorescence; at 79.9 µM (top of the series) unless noted. The source says: NIH Chemical Genomics Center [NCGC] NIH Molecular Libraries Probe Production Centers Network [MLPCN] MLPCN Grant: R03 MH084841-01 Assay Submitter (PI): Wei Zheng NCGC Assay Overview: Alpha-glucosidase is responsible for the hydrolysis of terminal, non-reducing 1,4-linked alpha-D-glucose residues, which releases alpha-D-glucose. It is a lysosomal hydrolase that is required for the degradation of a small percentage (1-3%) of cellular glycogen in humans. Deficiency of this enzyme results in glycogen-storage disease type II (GSDII), also referred to as Pompe disease, an autosomal recessive disorder. Structurally normal glycogen is accumulated in the lysosomes and cytoplasm in affected patients, primarily in muscle tissues. Excessive glycogen storage within lysosomes may interrupt normal functioning of other organelles and leads to cellular injury. In turn, this leads to enlargement and dysfunction of the entire organ involved (eg: cardiomyopathy and muscle weakness). It has been reported that the improper folding and trafficking of alpha-glucosidase resulting from genetic mutations may account for a significant number of Pompe patients. […] We optimized this alpha-glucosidase assay in 1536-well plate format for identification of novel small molecule inhibitors or activators with structures other than the sugar analogs in order to develop new pharmacological chaperones. In particular, this assay is directed towards discovering compounds active in a more natural setting, tissue homogenate, that may have been missed by screens of the purified enzyme under more stringent conditions.
NCGC Assay Protocol Summary: This is a fluorogenic enzyme assay with 4-methylumbelliferyl-alpha-D-glucopyranoside as the substrate and human spleen homogenate containing alpha-glucosidase as the enzyme preparation. Upon hydrolysis of this fluorogenic substrate, the resulting product, 4-methylumbelliferone (which excites at 365 nm and emits at 440 nm) can be detected by a fluorescence plate reader. Data were normalized to the controls for basal activity (without enzyme) and 100% activity (with enzyme). The AC50 values were determined from concentration-response data modeled with the standard Hill equation. Assay buffer: 50 mM citric acid (titrated with potassium phosphate to pH 5.0), 0.01% Tween-20 (pH 5.0 is an optimal condition for this enzyme assay) 1536-well assay protocol for the alpha-glucosidase from human spleen homogenate: (1) Add 2 ul/well spleen homogenate (1 ug) (2) Add 23 nL compounds in DMSO solution. The final titration was 0.5 nM to 58 uM. (3) Add 2 ul of substrate (1 mM final) (4) Incubate at 37 C for 40 min (5) Add 2 ul stop solution (1M NaOH and 1M Glycine mixture, pH 10) (6) Detect the assay plate in a ViewLux plate reader (PerkinElmer) with Ex=365 nm and Em=440nm. Keywords: Alpha-glucosidase, Pompe Disease, pharmacological chaperone, chaperone therapy, high throughput screening, alpha-glucosidase inhibitor, MLSMR, MLSCN, NIH Roadmap, qHTS and NCGC
On the technique in general: Quantitative high-throughput screening tests each substance at several concentrations.
`C/C1=C2N=C(/C=C3N=C(/C(C)=C4\[N-][C@@](C)([C@H]5N=C1[C@@](C)(CCC(=O)NC[C@H](C)OP(=O)([O-])O[C@@H]1[C@H](O)[C@H](n6cnc7cc(C)c(C)cc76)O[C@@H]1CO)[C@@H]5CC(N)=O)[C@](C)(CC(N)=O)[C@H]4CCC(N)=O)[C@@](C)(CC(N)=O)[C@@H]\3CCC(N)=O)C(C)(C)[C@@H]/2CCC(N)=O.[C-]#N.[Co+3]`: the activity change, negative = inhibition is inactive: 5.6% [at 29.1 µM].
Next, `CP(=O)(OC12CC3CC(CC(C3)C1)C2)OC12CC3CC(CC(C3)C1)C2`: inactive: -1.12%.
Next, `CCOC(=O)c1ccc(NP(C)(=O)Oc2ccc(Cl)cc2)cc1` (configuration not stated): inactive: -1.03%; `CN(C)C(=O)c1c([N+](=O)[O-])cc([N+](=O)[O-])cc1[N+](=O)[O-]`: inactive: -1.6%.
Next, `CP(=O)(Nc1ccc(Cl)cc1)Oc1ccc(F)cc1` (configuration not stated): inactive: 1.82%; `CC(C)(C)c1ccc(OP(C)(=O)O)cc1`: inactive: 4.1%.
Take `COc1ccccc1OP(C)(=O)Nc1ccccc1Br` (configuration not stated): the activity change, negative = inhibition was inactive: 1.81%.
Next, `CP(=O)(Oc1ccccc1)N1CCOC1=O` (configuration not stated): inactive: -1.62%; `CCc1ccc(OP(C)(=O)Nc2cccnc2)cc1` (configuration not stated): inactive: 1.12%; `COc1ccccc1OP(C)(=O)Nc1c(C)n(C)n(-c2ccccc2)c1=O` (configuration not stated): inactive: 4.11%.
Next, `OCCSCCO`: inactive: 0.556%; `O=C(OCCCN1CCCC1)C(O)(c1ccccc1)C1CCCCC1` (configuration not stated): inactive: -17.1%; `CCN(CC)CC(O)COC(=O)C(O)(c1ccccc1)C1CCCCC1` (configuration not stated): inactive: -6.72%.
Next, `COc1ccc(OP(C)(=O)Nc2ccc(Br)cc2)cc1` (configuration not stated): inactive: -5.01%; `CCc1ccc(OP(C)(=O)O)cc1`: inactive: -1.37%.
Take `CP(=O)(Nc1ccccn1)Oc1ccccc1` (configuration not stated): the activity change, negative = inhibition is inactive: -9%.
The figure for `COc1ccccc1OP(C)(=O)Nc1ccc(C)cc1C` (configuration not stated) is inactive: -7.17%; for `O=[N+]([O-])c1cc([N+](=O)[O-])c(Nc2ccccn2)c([N+](=O)[O-])c1` it is inactive: -17.5%.
Next, `Cc1c(NP(C)(=O)Oc2ccc(C(C)C)cc2)c(=O)n(-c2ccccc2)n1C` (configuration not stated): inactive: 1.91%; `CN(C)CCOC(=O)C(O)(c1ccccc1)C1CCCC1` (configuration not stated): inactive: -28.1%; `COc1ccc(OP(C)(=O)Nc2ccccn2)cc1` (configuration not stated): inactive: 2.45%.
Next, `COc1ccccc1OP(C)(=O)Nc1ccc(Br)cc1` (configuration not stated): inactive: -0.59%; `CP(=O)(OCCOc1ccccc1)OCCOc1ccccc1`: inactive: 3.7%.
Consider `CP(=O)(Nc1ccc(Cl)cc1Cl)Oc1ccccc1` (configuration not stated), for which the activity change, negative = inhibition was inactive: 1.29%.
On to `Cc1nc2ccc3ccccc3c2o1.O=[N+]([O-])c1cc([N+](=O)[O-])c(O)c([N+](=O)[O-])c1`, for which the activity change, negative = inhibition was inactive: -12.7%.
Next, `COc1ccc(OP(C)(=O)Nc2ccccc2Br)cc1` (configuration not stated): inactive: -7.12%; `COc1ccccc1OP(C)(=O)Nc1ccc(C)c(C)c1` (configuration not stated): inactive: 1.89%; `Cc1cc(C)cc(OP(C)(=O)Nc2cccc(C(F)(F)F)c2)c1` (configuration not stated): inactive: -0.933%.
Regarding `CCCCCOc1ccc(NP(C)(=O)Oc2ccc(Cl)cc2Cl)cc1` (configuration not stated), the activity change, negative = inhibition is inactive: 4.33%.
Next, `CP(=O)(Nc1ccccc1)Oc1ccc(F)cc1` (configuration not stated): inactive: -3.34%; `CCN(CC)CCCOC(=O)C(O)(c1ccccc1)C1CCCCC1` (configuration not stated): inactive: -8.97%; `COc1ccc(OP(C)(=O)Nc2ccc(SC(F)(F)F)cc2)cc1` (configuration not stated): inactive: 0.0173%.
The figure for `CCOC(=O)c1ccc(NP(C)(=O)Oc2ccc(F)cc2)cc1` (configuration not stated) is inactive: 2.47%; for `CCC(C)(OO)OOC(C)(CC)OO` (configuration not stated) it is inactive: -1.67%.
The figure for `Cc1cccc([N+](=O)[O-])c1[N+](=O)[O-]` is inactive: -2.95%.
In the case of `O=C(OCCN1CCN(CCOCc2ccccc2)CC1)C(O)(c1ccccc1)c1ccccc1`, the activity change, negative = inhibition was inactive: -5.11%.
Next, `CC(C)c1ccc(OP(C)(=O)Nc2ccc(SC(F)(F)F)cc2)cc1` (configuration not stated): inactive: -3.67%.
The figure for `CP(=O)(Nc1ccccc1F)Oc1ccccc1` (configuration not stated) is inactive: -2.11%; for `CCN(CCCl)Cc1ccccc1C` it is inactive: 4.59%.
The figure for `Cc1ccccc1NP(C)(=O)Nc1ccccc1C` is inactive: -3.38%; for `[NH4+].[O-][Cl+3]([O-])([O-])[O-]` it is inactive: 8.17%.
Regarding `CP(=O)(Nc1ccc2c(c1)OCCO2)Oc1ccccc1` (configuration not stated), the activity change, negative = inhibition was inactive: -4.78%.
Take `CCOP(=O)(CC)OCC`: the activity change, negative = inhibition was inactive: 2.54%.
The figure for `CCOP(C)(=S)SCC(=O)NC(C)(CC)C(=O)O` (configuration not stated) is inactive: -4.85%; for `CP(=O)(Nc1ccc(SC(F)(F)F)cc1)Oc1ccc(F)cc1` (configuration not stated) it is inactive: 3.7%; for `Cc1ccc([N+](=O)[O-])c([N+](=O)[O-])c1` it is inactive: -5.76%.
The figure for `Cc1c([N+](=O)[O-])cccc1[N+](=O)[O-]` is inactive: 7.76%.
